One data set has as its target T1, HsMAP4K4 (Homo sapiens, UniProt O95819).
T1 construct: purchased Reaction Biology
The data set can be described thus: HsMAP4K4 ADP-Glo kinase assay. It is filed as biochemical. The conditions noted are these: 10 µM ATP, read-out: enzyme inhibition HsMAP4K4. As to the method: (§1) Reactions were carried out at 10 μM ATP.

The chains behind the UniProt entries cited, without tags or fusion partners. Where a name states a change or a piece, a line headed by the entry shows the natural chain unless it says otherwise.
UniProt O95819: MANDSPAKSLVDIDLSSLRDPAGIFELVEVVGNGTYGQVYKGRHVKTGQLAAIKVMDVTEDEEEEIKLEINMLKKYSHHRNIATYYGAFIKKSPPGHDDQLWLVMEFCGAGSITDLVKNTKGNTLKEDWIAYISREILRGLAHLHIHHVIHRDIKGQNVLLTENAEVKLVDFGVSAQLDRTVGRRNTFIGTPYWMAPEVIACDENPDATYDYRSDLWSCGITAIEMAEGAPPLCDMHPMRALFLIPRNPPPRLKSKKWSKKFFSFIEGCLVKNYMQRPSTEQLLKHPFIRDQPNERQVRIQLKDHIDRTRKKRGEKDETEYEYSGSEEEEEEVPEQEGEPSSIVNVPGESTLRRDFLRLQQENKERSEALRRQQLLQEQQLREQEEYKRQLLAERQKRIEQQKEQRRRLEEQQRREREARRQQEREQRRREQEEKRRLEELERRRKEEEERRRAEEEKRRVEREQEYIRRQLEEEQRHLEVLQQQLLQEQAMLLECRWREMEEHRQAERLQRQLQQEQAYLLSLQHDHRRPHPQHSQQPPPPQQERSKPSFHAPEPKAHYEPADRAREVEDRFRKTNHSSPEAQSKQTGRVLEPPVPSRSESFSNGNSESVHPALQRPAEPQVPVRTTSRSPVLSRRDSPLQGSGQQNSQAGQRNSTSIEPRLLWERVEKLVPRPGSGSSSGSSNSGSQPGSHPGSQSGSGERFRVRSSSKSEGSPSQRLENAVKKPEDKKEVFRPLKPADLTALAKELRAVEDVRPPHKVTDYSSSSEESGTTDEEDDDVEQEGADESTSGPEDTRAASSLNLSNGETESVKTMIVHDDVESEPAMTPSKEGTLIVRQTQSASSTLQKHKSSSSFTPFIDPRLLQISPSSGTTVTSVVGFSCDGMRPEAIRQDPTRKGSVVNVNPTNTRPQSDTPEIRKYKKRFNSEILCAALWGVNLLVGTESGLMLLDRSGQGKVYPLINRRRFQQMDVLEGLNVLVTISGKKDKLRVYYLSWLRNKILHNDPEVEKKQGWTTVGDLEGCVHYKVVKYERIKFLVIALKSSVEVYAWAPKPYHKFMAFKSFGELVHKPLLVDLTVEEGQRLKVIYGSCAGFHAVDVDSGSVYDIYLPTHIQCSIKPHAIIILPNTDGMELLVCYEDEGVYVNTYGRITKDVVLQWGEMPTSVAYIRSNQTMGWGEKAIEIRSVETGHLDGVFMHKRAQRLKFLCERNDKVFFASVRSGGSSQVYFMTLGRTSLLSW
UniProt Q8N4C8: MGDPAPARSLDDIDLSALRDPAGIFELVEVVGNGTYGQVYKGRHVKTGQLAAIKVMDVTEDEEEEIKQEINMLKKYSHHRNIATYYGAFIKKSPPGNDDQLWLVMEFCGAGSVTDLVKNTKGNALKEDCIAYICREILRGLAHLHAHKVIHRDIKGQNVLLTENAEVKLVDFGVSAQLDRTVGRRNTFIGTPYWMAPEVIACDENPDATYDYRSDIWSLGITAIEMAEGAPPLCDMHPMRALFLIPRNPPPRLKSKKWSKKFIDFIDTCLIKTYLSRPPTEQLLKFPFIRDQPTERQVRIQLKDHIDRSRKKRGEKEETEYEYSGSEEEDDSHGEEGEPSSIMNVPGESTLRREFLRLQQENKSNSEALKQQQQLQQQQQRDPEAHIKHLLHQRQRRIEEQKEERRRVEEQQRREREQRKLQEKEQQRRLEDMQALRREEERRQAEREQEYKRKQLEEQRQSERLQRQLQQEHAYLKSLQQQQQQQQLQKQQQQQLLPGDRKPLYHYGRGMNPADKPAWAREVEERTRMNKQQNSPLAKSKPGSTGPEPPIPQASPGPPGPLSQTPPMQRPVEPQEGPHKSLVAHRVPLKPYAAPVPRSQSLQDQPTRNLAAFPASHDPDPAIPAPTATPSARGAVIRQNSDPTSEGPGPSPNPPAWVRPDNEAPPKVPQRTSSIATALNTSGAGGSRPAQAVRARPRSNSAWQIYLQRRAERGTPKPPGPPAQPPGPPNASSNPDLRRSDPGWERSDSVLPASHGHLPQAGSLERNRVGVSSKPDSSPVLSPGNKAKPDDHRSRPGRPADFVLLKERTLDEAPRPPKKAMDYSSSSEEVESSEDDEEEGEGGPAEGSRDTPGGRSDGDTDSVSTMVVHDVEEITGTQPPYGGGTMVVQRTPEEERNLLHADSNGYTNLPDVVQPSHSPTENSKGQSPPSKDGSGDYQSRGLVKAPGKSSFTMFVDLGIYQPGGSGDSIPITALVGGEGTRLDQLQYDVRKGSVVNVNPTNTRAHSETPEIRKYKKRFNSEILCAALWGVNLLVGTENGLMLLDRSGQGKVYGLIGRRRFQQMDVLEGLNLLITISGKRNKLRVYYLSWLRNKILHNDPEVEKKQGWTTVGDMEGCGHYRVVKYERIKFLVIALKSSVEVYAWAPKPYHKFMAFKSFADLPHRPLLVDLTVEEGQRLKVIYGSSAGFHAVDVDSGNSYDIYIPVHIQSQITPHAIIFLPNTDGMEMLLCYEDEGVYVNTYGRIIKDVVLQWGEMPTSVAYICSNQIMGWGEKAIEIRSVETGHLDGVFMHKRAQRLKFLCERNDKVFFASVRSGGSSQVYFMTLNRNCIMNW
UniProt Q8I719: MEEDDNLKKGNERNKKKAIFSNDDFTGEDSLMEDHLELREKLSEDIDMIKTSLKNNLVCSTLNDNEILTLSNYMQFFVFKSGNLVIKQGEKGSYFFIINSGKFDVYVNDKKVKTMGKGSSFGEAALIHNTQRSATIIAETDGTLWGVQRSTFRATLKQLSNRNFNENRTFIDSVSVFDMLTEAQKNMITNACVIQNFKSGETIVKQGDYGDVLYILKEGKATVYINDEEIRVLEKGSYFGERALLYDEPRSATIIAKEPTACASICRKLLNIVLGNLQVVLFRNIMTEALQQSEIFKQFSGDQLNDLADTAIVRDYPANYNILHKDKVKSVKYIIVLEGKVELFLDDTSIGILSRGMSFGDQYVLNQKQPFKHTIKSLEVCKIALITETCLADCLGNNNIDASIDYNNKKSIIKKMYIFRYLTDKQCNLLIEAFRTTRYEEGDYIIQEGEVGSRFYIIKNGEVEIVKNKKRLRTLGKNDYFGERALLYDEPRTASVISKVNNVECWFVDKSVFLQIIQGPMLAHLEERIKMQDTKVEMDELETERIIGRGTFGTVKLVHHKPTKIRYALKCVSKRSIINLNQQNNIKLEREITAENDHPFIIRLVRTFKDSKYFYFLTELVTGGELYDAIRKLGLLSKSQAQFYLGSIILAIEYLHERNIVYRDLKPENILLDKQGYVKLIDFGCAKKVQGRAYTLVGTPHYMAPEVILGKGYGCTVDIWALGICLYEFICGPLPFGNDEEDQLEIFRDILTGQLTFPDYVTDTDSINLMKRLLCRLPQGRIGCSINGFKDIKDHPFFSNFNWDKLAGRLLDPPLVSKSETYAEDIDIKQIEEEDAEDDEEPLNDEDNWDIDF

For the next data set, the target named is T2, HsMINK1 (Homo sapiens, UniProt Q8N4C8).
T2 construct: purchased Reaction Biology
Put plainly: HsMINK1 ADP-Glo kinase assay. To be noted: 10 µM ATP, read-out: enzyme inhibition HsMINK1. The class given is biochemical. As to the method:
as §1

Data set [1] relates to oocyst formation in A. coluzzii fed PfNF54 gametocyte-infected blood. To be noted: 2 µM for 48 h before feeding, mean ± SD.
Data set [2] deals with β-haematin (synthetic haemozoin) formation. To be noted: detergent-mediated assay, relative to chloroquine and pyrimethamine controls.
For the next data set, the system named is Pf3D7 strain. To be noted: Pf3D7, 10× IC50, 48 h.
The test system of data set [3] is stage IV and V gametocytes. To be noted: IC90, 24 h, untreated 8.8 ± 0.2 µm.
The test system of the next data set is P. berghei. To be noted: oral, 4 × 50 mg kg^−1.
A further data set in a line: in vivo. To be noted: Balb/C, mouse.
Data set [4] can be described thus: in vitro. The conditions noted are these: human, HepG2 cells.
Data set [5] is described as follows: in vitro. The conditions noted are these: Chinese hamster.
The test system of the next data set is late-stage gametocytes. The conditions noted are these: read-out: late-stage gametocyte activity (PrestoBlue); PrestoBlue cell viability platform; cited from earlier work.
A further data set relates to hERG potassium channel. To be noted: read-out: hERG IC50; cited from earlier work.
The target in a further data set is PfPKG (Plasmodium falciparum, UniProt Q8I719). Put plainly: biochemical.
The next data set has as its system PfNF54 ABS parasites. Put plainly: microbe, parasite or virus in culture. To be noted: Plasmodium falciparum, 72 h.
A further data set deals with PfK1 ABS parasites. The data set can be described thus: microbe, parasite or virus in culture. The conditions noted are these: Plasmodium falciparum, 72 h.
The subject of a further data set is PfDd2 ABS parasites. The data set can be described thus: microbe, parasite or virus in culture. To be noted: Plasmodium falciparum.
The test system of data set [6] is P. falciparum gametocytes (luciferase reporter line 3D7elo1-pfs16-CBG99). Put plainly: microbe, parasite or virus in culture. The conditions noted are these: Plasmodium falciparum, 48 h.
Data set [7] concerns PfNF54 male gamete exflagellation. The data set can be described thus: microbe, parasite or virus in culture. To be noted: Plasmodium falciparum, read-out: inhibition of male gamete exflagellation.
For data set [8], the system named is PfPI4Kβ cKD parasite line. The data set can be described thus: microbe, parasite or virus in culture. To be noted: Plasmodium falciparum, 72 h, read-out: IC50 PfPI4Kβ knockdown.
Data set [9] has as its system PfPI4Kβ cKD parasite line. To be noted: cited from earlier work.

Where two headings read alike, the source gives them in different places. A value given as a limit tells only on which side of the number the result lay.

Consider `CN(C)CCCOc1ccc(-c2ccc3ncc4c(c3c2)n(C2CCOCC2)c(=O)n4C)cn1` [AZD0156], for which the inhibition at 10 µM at HsMAP4K4 and on HsMINK1 was less than 50% in each case. For the same compound, the “transmission-blocking activity (reduction in oocyst prevalence)” value in data set [1] was 56 ± 6%. The “transmission-reducing activity (reduction in oocyst intensity)” value in [1] stood at 82 ± 5%. In data set [2], the “inhibition of β-haematin formation” value was “not to inhibit”. Further, in the data set on Pf3D7 strain, the “in vitro logPRR” value is 1.3. For the same compound, the “mean gametocyte length after treatment” value in data set [3] came out at 5.4 ± 0.4 µm. Moreover, in the data set with P. berghei, the reduction in parasitaemia is on record as 81%. Besides, the AUC is 8.53 µM·h in “in vivo” (iv, 3 mg/kg) and 14.2 µM·h in “in vivo” (po, 10 mg/kg). The same compound showed a Cmax in the data set “in vivo” (po, 10 mg/kg) of 3000 nM. In the data set “in vitro [4]”, the viability at 24 h, 2 µM was determined as 96%. The IC50 was 11700 nM in “in vitro [5]”; 236 nM with late-stage gametocytes; greater than 30000 nM with hERG potassium channel; greater than 10000 nM against PfPKG; 335 ± 23 nM with PfNF54 ABS parasites; 415 ± 23 nM in the data set on PfK1 ABS parasites. Moreover, the IC50 in the data set on PfDd2 ABS parasites (72 h) stood at 136 ± 7 nM; with PfDd2 ABS parasites (read-out: IC50 PfDd2 parental line) it was 121 ± 13 nM; in data set [6] (read-out: IC50 late-stage gametocytes) it was 943 ± 41 nM; in [6] (read-out: IC50 mature gametocytes) it was 384 ± 37 nM; in data set [8] it was 30 ± 2 nM. Moreover, the inhibition at 2 µM in data set [7] came out at 90%.
`CC(C)n1nc(-c2ccc3oc(N)nc3c2)c2c(N)ncnc21` [sapanisertib]: the “fold shift on PfPI4Kβ cKD” value in [9] is given as greater than 10 fold.

Source of the values: paper PMC12232896 (Angewandte Chemie (International Ed. in English), 2025).
